These results are taken from PMC7337497 (The Journal of Cell Biology, 2020).

This series concerns the molecule itself. In words: SEC-MALS; static light scattering: 90 µl of 10 µM (1.5 mg/ml) ATG12–ATG5-ATG16L1-GFP on Superose 6 Increase 10/300 GL coupled to a TREOS II instrument; 25 mM Hepes pH 7.5, 300 mM NaCl, 1 mM DTT; dimer of the three-subunit complex.

B1: ATG12–ATG5-ATG16L1-GFP complex (E3-GFP) (complex, human)
chain 1: MAEEPQSVLQLPTSIAAGGEGLTDVSPETTTPEPPSSAAVSPGTEEPAGDTKKKIDILLKAVGDTPIMKTKKWAVERTRTIQGLIDFIKKFLKLVASEQLFIYVNQSFAPSPDQEVGTLYECFGSDGKLVLHYCKSQAWG
chain 2: MTDDKDVLRDVWFGRIPTCFTLYQDEITEREAEPYYLLLPRVSYLTLVTDKVKKHFQKVMRQEDISEIWFEYEGTPLKWHYPIGLLFDLLASSSALPWNITVHFKSFPEKDLLHCPSKDAIEAHFMSCMKEADALKHKSQVINEMQKKDHKQLWMGLQNDRFDQFWAINRKLMEYPAEENGFRYIPFRIYQTTTERPFIQKLFRPVAADGQLHTLGDLLKEVCPSAIDPEDGEKKNQVMIHGIEPMLETPLQWLSEHLSYPDNFLHISIIPQPTD
chain 3: MSSGLRAADFPRWKRHISEQLRRRDRLQRQAFEEIILQYNKLLEKSDLHSVLAQKLQAEKHDVPNRHEISPGHDGTWNDNQLQEMAQLRIKHQEELTELHKKRGELAQLVIDLNNQMQRKDREMQMNEAKIAECLQTISDLETECLDLRTKLCDLERANQTLKDEYDALQITFTALEGKLRKTTEENQELVTRWMAEKAQEANRLNAENEKDSRRRQARLQKELAEAAKEPLPVEQDDDIEVIVDETSDHTEETSPVRAISRAATKRLSQPAGGLLDSITNIFGRRSVSSFPVPQDNVDTHPGSGKEVRVPATALCVFDAHDGEVNAVQFSPGSRLLATGGMDRRVKLWEVFGEKCEFKGSLSGSNAGITSIEFDSAGSYLLAASNDFASRIWTVDDYRLRHTLTGHSGKVLSAKFLLDNARIVSGSHDRTLKLWDLRSKVCIKTVFAGSSCNDIVCTEQCVMSGHFDKKIRFWDIRSESIVREMELLGKITALDLNPERTELLSCSRDDLLKVIDLRTNAIKQTFSAPGFKCGSDWTRVVFSPDGSYVAAGSAEGSLYIWSVLTGKVEKVLSKQHSSSINAVAWSPSGSHVVSVDKGCKAVLWAQY
modifications: conjugated to a lysine residue in ATG5 (ATG12–ATG5 conjugate) | a lysine residue conjugated to ATG12
notes: ATG12, human; synthetic gene codon optimised for Sf9; conjugated to ATG5 by coexpressed ATG7 and ATG10; ATG5, human; ATG16L1 isoform β, human; Dimer with two copies of each subunit by static light scattering; no TEV cleavage is described for this complex; also called GFP-tagged E3; E3 complex; source: Sf9, coexpressed from one poly-cistronic construct with ATG7 and ATG10, purified (StrepTactin, …)
On to B1, for which the stoichiometry N (usually a count of units in the complex or per binding partner) is 2.
